The entries come from a sample that favours hits as a whole.
GIV Gai3 FP – inhibitors of GIV GBA-motif binding to rat Galpha-i3; P08753; Galpha-i3/FITC-GIV peptide fluorescence polarization, 90 min; stronger effect = lower value; scaled: aluminum fluoride 0%, vehicle 100%; percent of control (FP), % (test concentration not listed); 210,000 tested, 0.42% active; AID 1224905;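 active = replicate mean at 85% of control or lower, very high polarization wells dropped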;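 note: wells of about 15 µL received 100 nL stock; the first replicate is given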
HCMV UL50-53 inh – inhibitors of HCMV UL50-UL53 nuclear egress complex interaction; HTRF UL50-UL53 interaction, normalized percent inhibition; inhibition, % (test concentration not listed); 0.15% of 190,000 active; AID 1918969; in the data active = inhibition above about 27%, passing the limit was not always enough
An asterisk follows results filed as active; . = no result given.

#1 COc1cc(C2Nc3ccccc3NC3=C2C(=O)CC(c2ccc4c(c2)OCO4)C3)cc(OC)c1O (stereo not given)
#2 NS(=O)(=O)c1ccc(NC(=O)c2ccc3c(c2)CCCN3S(=O)(=O)c2ccccc2)cc1
#3 Nc1ccc(C(=O)O)c2c(C(=O)O)cccc12
#4 O=C(O)c1cccc2cccc(C(=O)O)c12
#5 COc1ccc(CSc2nccc3c2ccn3CC(=O)NCc2cccnc2)cc1

| assay / compound | 1 | 2 | 3 | 4 | 5 |
| --- | --- | --- | --- | --- | --- |
| GIV Gai3 FP | 97 | 101 | 72* | 98 | 108 |
| HCMV UL50-53 inh | -18 | -1 | -46 | -30 | . |

#6 COc1ccc(N2C(=O)CSC23C(=O)N(CN2CCCC(C)C2)c2ccccc23)cc1 (stereo not given)
#7 CCCN(CCC)C(=O)/C=C/c1cc(OC)c(OC)c(OC)c1
#8 COc1cc(/C=C/C(=O)/C=C/c2ccc(N(C)C)cc2)cc(OC)c1OC
#9 Cc1ccc2cc3c(nc2c1)N(S(=O)(=O)c1ccc2c(c1)OCCO2)CC3
#10 CC(C)CN(CC(C)C)C(=O)c1ccc2c(c1)NC(=O)/C(=C/c1ccccc1)S2

| assay / compound | 6 | 7 | 8 | 9 | 10 |
| --- | --- | --- | --- | --- | --- |
| GIV Gai3 FP | 102 | 105 | -64* | 97 | 106 |
| HCMV UL50-53 inh | -32 | -33 | . | 4 | . |

#11 O=c1c2cccc3cccc(c32)c2nc3ccccc3n12
#12 C=CCNc1ccc2c3c1cccc3c(=O)n1c3ccccc3nc21
#13 CCN1/C(=C\C=C\c2n(CC)c3cc([N+](C)(C)C)ccc3[n+]2CC)N(CC)c2cc([N+](C)(C)C)ccc21
#14 CCN1/C(=C/C=C/c2n(CC)c3cc(Cl)ccc3[n+]2Cc2ccccc2)N(Cc2ccccc2)c2ccc(Cl)cc21
#15 O=C(CN1CSCC1=O)Nc1nc(SCc2ccccc2)ns1

| assay / compound | 11 | 12 | 13 | 14 | 15 |
| --- | --- | --- | --- | --- | --- |
| GIV Gai3 FP | 112 | -52* | 94 | -62* | . |
| HCMV UL50-53 inh | . | . | . | . | -16 |

#16 O=C1c2cccc3c(N4CCCCC4)ccc(c23)C(=O)N1c1ccccn1
#17 CC(=O)N(C(C)=O)N1C(=O)c2cccc3c(N4CCOCC4)ccc(c23)C1=O
#18 O=C(Cn1c(=O)n(CC2CCCO2)c(=O)c2ccc(C(=O)NC3CCCCC3)cc21)Nc1ccc(F)cc1 (stereo not given)
#19 COc1ccc(N=Cc2sc3ccccc3c2O)cc1
#20 O=[N+]([O-])c1cccc(N=Cc2sc3ccccc3c2O)c1

| assay / compound | 16 | 17 | 18 | 19 | 20 |
| --- | --- | --- | --- | --- | --- |
| GIV Gai3 FP | -29* | 165 | 102 | -32* | 107 |
| HCMV UL50-53 inh | -120 | -97 | 3 | . | -24 |

#21 CC(O)c1ccccc1-c1ccccc1C(C)O (stereo not given)
#22 COc1ccc(CNc2ccc3cn[nH]c3c2)c(OC)c1C
#23 Cc1ccc(C)c(CNc2ccc3[nH]ncc3c2)c1
#24 COc1ccc(-c2nc3c4cnn(-c5cccc(C)c5)c4ncn3n2)cc1
#25 CC1CCCN(C/C(O)=C(\C#N)c2nc3ccccc3[nH]2)C1 (stereo not given)

| assay / compound | 21 | 22 | 23 | 24 | 25 |
| --- | --- | --- | --- | --- | --- |
| GIV Gai3 FP | 103 | 101 | 110 | 102 | 104 |
| HCMV UL50-53 inh | -12 | 52* | -35 | 13 | -21 |

Look-ups from the results shown:
In HCMV UL50-53 inh, cpd 23 has the entry -35
In GIV Gai3 FP, cpd 22 has the entry 101
In HCMV UL50-53 inh, cpd 21 has the entry -12

(more compounds)
#26 CC1CCCN(Cc2c(O)ccc3cc(-c4nc5ccccc5[nH]4)c(=O)oc23)C1 (stereo not given)
#27 CN1CCN(Cc2c(O)ccc3cc(-c4ccccc4)c(=O)oc23)CC1
#28 CCOc1cccc2cc(-c3nc4ccccc4[nH]3)c(=O)oc12
#29 CCC1CCCCN1Cc1c(O)ccc2cc(-c3nc4ccccc4[nH]3)c(=O)oc12 (stereo not given)
#30 CN1CCN(Cc2c(O)ccc3cc(-c4nc5ccccc5[nH]4)c(=O)oc23)CC1

| assay / compound | 26 | 27 | 28 | 29 | 30 |
| --- | --- | --- | --- | --- | --- |
| GIV Gai3 FP | -33* | 111 | . | -42* | -75* |
| HCMV UL50-53 inh | -17 | . | -14 | . | -60 |

#31 CCOC(=O)C1=C(C)N=c2s/c(=C/c3ccc(N4CCOCC4)o3)c(=O)n2C1c1ccccc1OC (stereo not given)
#32 CC(C)CCNC(=O)Cn1c(=O)c2cccn2c2ccc(F)cc21
#33 O=C(c1cc(-c2ccc3c(c2)OCCO3)on1)N(Cc1ccccc1Cl)C1CCS(=O)(=O)C1 (stereo not given)
#34 Nc1nnc2cc(C(=O)c3cc(F)ccc3O)cnn12
#35 Cc1ccc(O)c(C(=O)c2cnn3c(N)nnc3c2)c1

| assay / compound | 31 | 32 | 33 | 34 | 35 |
| --- | --- | --- | --- | --- | --- |
| GIV Gai3 FP | 111 | 104 | 100 | . | . |
| HCMV UL50-53 inh | . | -22 | -15 | -10 | 51* |

#36 Cc1ccc(CSc2nnc3c(=O)n(-c4ccc(C(C)C)cc4)ccn23)cc1
#37 CCCCNc1cc(N2CCC(C)CC2)c2noc3c2c1C(=O)c1ccccc1-3
#38 CN(C)CCNc1cc(N2CCN(C(=O)c3ccco3)CC2)c2noc3c2c1C(=O)c1ccccc1-3
#39 CCNc1cc(N2CCC(C)CC2)c2noc3c2c1C(=O)c1ccccc1-3
#40 CN(C)CCNc1cc(N2CCOCC2)c2noc3c2c1C(=O)c1ccccc1-3

| assay / compound | 36 | 37 | 38 | 39 | 40 |
| --- | --- | --- | --- | --- | --- |
| GIV Gai3 FP | 109 | 2.5* | -31* | 139 | -68* |
| HCMV UL50-53 inh | . | -60 | -132 | -72 | -73 |

Profiles, looked up by structure. Values in the order: GIV Gai3 FP | HCMV UL50-53 inh
Listed for Cc1ccc(CSc2nnc3c(=O)n(-c4ccc(C(C)C)cc4)ccn23)cc1 → 109 | .
Listed for CN(C)CCNc1cc(N2CCOCC2)c2noc3c2c1C(=O)c1ccccc1-3 → -68* | -73
Listed for CN(C)CCNc1cc(N2CCN(C(=O)c3ccco3)CC2)c2noc3c2c1C(=O)c1ccccc1-3 → -31* | -132

The listing continues:
#41 CCNc1cc(N2CCCC2)c2noc3c2c1C(=O)c1ccccc1-3
#42 CCNc1cc(N2CCN(c3ccccc3)CC2)c2noc3c2c1C(=O)c1ccccc1-3
#43 COc1ccc(N2C(=O)/C(=C/c3ccc(OCC(=O)O)c(OC)c3)NC2=S)cc1
#44 CCCCOc1ccc(C2C3CN(C(=O)OC(C)(C)C)CC=C3C(C#N)=C(N)C2(C#N)C#N)cc1OC (stereo not given)
#45 COc1ccc(C(=O)Nc2sc3c(c2C(=O)NCc2cccnc2)CCCC3)cc1

| assay / compound | 41 | 42 | 43 | 44 | 45 |
| --- | --- | --- | --- | --- | --- |
| GIV Gai3 FP | 201 | 114 | 103 | 126 | . |
| HCMV UL50-53 inh | . | -2 | -55 | . | -7 |

#46 CCN(CC)CCOC(=O)c1ccc(NC(=O)CCN2C(=O)S/C(=C/c3ccc(Cl)cc3)C2=O)cc1
#47 C(=N\OCc1nc2c3cnn(-c4ccccc4)c3ncn2n1)/c1ccccc1
#48 Cc1ccc2c(=O)c(C(=O)c3ccccc3)cn(CC(=O)Nc3ccc(C)c(F)c3)c2n1
#49 Cc1ccc2c(=O)c(C(=O)c3ccccc3)cn(CC(=O)Nc3ccccc3)c2n1
#50 O=C(c1ccc2c(c1)OCO2)N1CCN(C2c3ccccc3-c3ccccc32)CC1

| assay / compound | 46 | 47 | 48 | 49 | 50 |
| --- | --- | --- | --- | --- | --- |
| GIV Gai3 FP | 99 | . | 139 | 113 | 99 |
| HCMV UL50-53 inh | -25 | 7 | 72* | . | -22 |

#51 CCn1c(=O)n(Cc2cccnc2)c(=O)c2cnc(-c3ccc(Cl)cc3)nc21
#52 Cc1c(C#N)c2nc3ccccc3n2c(=O)/c1=C\Nc1cccc(NC(=O)c2ccccc2)c1
#53 Cc1c(C#N)c2nc3ccccc3n2c(=O)/c1=C\Nn1cnnc1
#54 Cc1cc(F)ccc1NS(=O)(=O)c1cn(C)c(C)n1
#55 O=C1/C(=C/c2ccc(O)cc2)SC(=S)N1CCc1ccccc1

| assay / compound | 51 | 52 | 53 | 54 | 55 |
| --- | --- | --- | --- | --- | --- |
| GIV Gai3 FP | 97 | -67* | 118 | 106 | -5.9* |
| HCMV UL50-53 inh | . | . | . | 2 | . |

#56 CO/C=C1\SC(=S)N(CCc2ccccc2)C1=O
#57 O=C(O)COc1ccc2nccnc2c1
#58 COc1ccc(S(N)(=O)=O)cc1-c1nnc2c3ccccc3c(C)nn12
#59 COc1ccc(S(=O)(=O)N2CCOCC2)cc1-c1nnc2c3ccccc3c(C)nn12
#60 N#CC1CCCc2c1[nH]c1ccc(Br)cc21 (stereo not given)

| assay / compound | 56 | 57 | 58 | 59 | 60 |
| --- | --- | --- | --- | --- | --- |
| GIV Gai3 FP | 154 | 102 | 110 | 106 | 107 |
| HCMV UL50-53 inh | -52 | -42 | . | 54* | -21 |

#61 CCOc1ccc(-c2c(C#N)c(N)nc(SCC#N)c2C#N)cc1
#62 COc1cc(-c2c(C#N)c(SCC#N)nc(N)c2C(=O)OC(C)C)cc(OC)c1OC
#63 O=C1c2ccccc2C(=O)c2c(NC3CCCCC3)ccc(Nc3ccc(Oc4ccccc4)cc3)c21
#64 O=C1C=C(C(F)(F)F)c2ccc(NC3CCCCC3)c3cccc1c23
#65 Cc1[nH]n(-c2ccccc2)c(=O)c1N=O

| assay / compound | 61 | 62 | 63 | 64 | 65 |
| --- | --- | --- | --- | --- | --- |
| GIV Gai3 FP | . | . | 104 | -84* | . |
| HCMV UL50-53 inh | -11 | 63* | -6 | . | 38* |

#66 Cc1[nH]n(-c2ccccc2)c(=O)c1/C=N/O
#67 Oc1ccc(NC(=S)Nc2ccc(O)cc2)cc1
#68 CNc1ccc(O)cc1
#69 CCOc1cc(C#N)c(NC(=O)c2cccs2)cc1OCC
#70 C=CCc1cccc2cc(C(=O)Nc3sc(C(=O)OCC)c(C)c3C(=O)OCC)c(=O)oc12
#71 C=CCn1c(=O)/c(=C2/Sc3ccc(OC)cc3N2CC)s/c1=C1\SC(=S)N(CCCC)C1=O

| assay / compound | 66 | 67 | 68 | 69 | 70 | 71 |
| --- | --- | --- | --- | --- | --- | --- |
| GIV Gai3 FP | 97 | 108 | . | 102 | 119 | 42* |
| HCMV UL50-53 inh | -35 | -11 | 69* | -24 | . | . |
